High-throughput results (PubChem)
Sampled rows, rich in hits. Any-hit rate of the full collection: about 2.8%.
PglD inh: inhibitors of Campylobacter jejuni PglD acetyltransferase; purified PglD enzyme, DTNB colorimetric CoA detection; inhibition, % at 12.5 µM; 360,000 tested, 0.098% active; in the data active means inhibition above about 16%, passing the limit was not always enough; inconclusive means no clear call, values can overlap the other calls
PGC1a acetyl inh: PGC1a acetylation modulation, inhibitor mode; inhibition, % at 15.6 µM; 350,000 tested, 0.17% active; AID 651687; U2OS PGC1a acetylation, AlphaScreen anti-acetyl-lysine; with virally co-expressed GCN5 acetyltransferase;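 active means every replicate shows inhibition of at least 40%; inconclusive means mean inhibition at least 40% but some replicate below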
UUG fidelity: yeast start codon fidelity modulation | S. cerevisiae UUG-firefly luciferase reporter, luminescence/redox ratio | activity score, % at 18.7 µM | hit rate 0.13% among 350,000 | AID 602363;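 active means replicate mean at a twofold rise or more, about +100% in these data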;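 further: firefly luciferase made from a UUG start codon reports start codon fidelity; reporter light over untreated wells divided by growth signal over untreated wells; some hits fall short of that in this replicate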
esBAF inh: SWI/SNF esBAF complex inhibition; reporter increase, % at 12.5 µM; mouse ES cells, Bmi1-luciferase knock-in reporter, 24 h; 100% = twice the neutral-well signal; AID 602393; 350,000 tested, 2% active; in the data active means activation above about 40%; inconclusive means no clear call, values can overlap the other calls;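 further: a rise in the Bmi1 reporter signal indicates esBAF inhibition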
E-sel inducer: induces E-selectin expression in human endothelial cells; 260,000 tested, 0.37% active; P16581; activation, % at 7.58 µM; HUVEC E-selectin immunofluorescence imaging; normalized: neutral wells 0, TNF-alpha wells 100;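 active means mean E-selectin-positive cell signal at least 10% of the positive control, reached in at least 60% of replicates, without over 20% cell loss; inconclusive means no rule given, readout overlaps actives, possibly toxicity-flagged; inactive means the rest, including those meeting only one limit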
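Test system: HUVEC | Signal: Immunofluorescence imaging | Read-out: Percent E-selectin-positive cells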
Statin myotox sup: protects C2C12 myotubes from simvastatin toxicity; 330,000 tested, 0.78% active; ATP luminescence, 48 h; scaled: DMSO 0, geranylgeraniol control 100; AID 602340; rescue of ATP level, % at 7.49 µM;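 active means mean ATP rescue above about 67%, or every replicate alone reaching that limit, limit read from the data, passing the limit was not always enough; inconclusive means no clear call, values can overlap the other calls; inactive means mean under the limit and some replicate under it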;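 further: myotubes were challenged with 10 µM simvastatin during compound exposure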
esBAF Ring1 qPCR: de-represses Ring1 in mouse ESCs, confirming esBAF inhibition. fold change at 33 µM. shares compounds with esBAF inh. 550 tested, under 10 active. mouse ESC E14, Ring1 mRNA RT-qPCR fold change;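 active means Ring1 gene expression raised more than 2-fold over untreated cells in both replicates at either tested dose; inconclusive means only one replicate above 2-fold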;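 further: Ring1 transcript normalised to actin housekeeping signal by TaqMan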
Fgf4 repress: represses Fgf4 in mouse ESCs, confirming esBAF inhibition; shares compounds with esBAF inh; mouse ESC E14, Fgf4 mRNA qPCR fold change; stronger effect = lower value; Fgf4 expression fold change at 33 µM; 550 tested, 4% active;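 active means Fgf4 expression under 0.8 fold of control in both repeat measurements at one or both tested doses; inconclusive means under 0.8 fold in just a single repeat measurement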;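 further: Fgf4 transcript normalised to actin in duplex TaqMan qPCR; cells exposed to compound for 24 h before lysis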
esBAF Bmi1 qPCR: esBAF inhibition confirmed by Bmi1 de-repression; fold change at 33 µM; 550 tested, under 10 active; mouse ESE14 ES cells, Bmi1 mRNA qPCR fold; stronger effect = higher value; shares compounds with esBAF inh;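 active means Bmi1 expression fold change above 6 at either tested concentration, seen in replicate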
A549 tox SP: kills or reduces viability of A549 cells; shares compounds with esBAF inh; A549 cytotoxicity, plate reader; cell viability change % (negative = cytotoxic), % at 25 µM, hits read low; 550 tested, under 10 active; AID 743188; call rule not given here
HepG2 cytotox SP: cytotoxicity in HepG2 cells. activity change, negative = inhibition, % at 25 µM. plate reader; stronger effect = lower value. shares compounds with esBAF inh. 550 tested, 4% active; in the data active means activity change below about -50%
HEK293 cytotox SP: kills or reduces viability of HEK293 cells. activity change, negative = inhibition, % at 25 µM, hits read low. 550 tested, 3% active. shares compounds with esBAF inh. HEK293 cytotoxicity, plate reader; in the data active means activity change below about -38%, passing the limit was not always enough
Large screens that a line does not name were inactive (follow-up assays come after a bar, where they were run).

C[C@H](CO)N1C[C@H](C)[C@H](CN(C)C(=O)Nc2ccc(C(F)(F)F)cc2)Oc2ccc(NS(=O)(=O)c3ccc(F)cc3)cc2CC1=O	none
O=c1oc(-c2ccccc2)cc2ccccc12	esBAF inh 77.0 (no result: E-sel inducer) | esBAF Ring1 qPCR inactive | Fgf4 repress inactive | esBAF Bmi1 qPCR inactive | A549 tox SP inactive | HepG2 cytotox SP inactive | HEK293 cytotox SP inactive
C[C@@H]1CCCCO[C@H](CN(C)C(=O)NC2CCCCC2)[C@H](C)CN([C@H](C)CO)C(=O)c2cc(NC(=O)Cc3ccccc3)ccc2O1	none (no result: PglD inh, PGC1a acetyl inh, UUG fidelity, esBAF inh, Statin myotox sup)
COc1cc(OC)cc(C(=O)Nc2cccc3c2CCCC3)c1	none (no result: E-sel inducer)
COC(=O)C1CCc2c(ccc3c2CCCC3)C1=O (stereo not drawn)	esBAF inh 59.9 (no result: E-sel inducer) | esBAF Ring1 qPCR inactive | Fgf4 repress inactive | esBAF Bmi1 qPCR inactive | A549 tox SP inactive | HepG2 cytotox SP inactive | HEK293 cytotox SP inactive
Fc1cccc(-c2csc(-c3ccno3)n2)c1	none (no result: PglD inh, UUG fidelity, esBAF inh, Statin myotox sup)
Nc1nc(-c2cccc(F)c2)cs1	esBAF inh 57.5 (no result: E-sel inducer) | esBAF Ring1 qPCR inactive | Fgf4 repress inconclusive | esBAF Bmi1 qPCR inactive | A549 tox SP inactive | HepG2 cytotox SP inactive | HEK293 cytotox SP inactive
C=CCNc1nc(Cl)nc(NCc2ccco2)n1	PGC1a acetyl inh inconclusive (no result: E-sel inducer)
C=CCNc1nc(Cl)nc(Nc2ccccc2)n1	esBAF inh 59.5 (no result: PGC1a acetyl inh, E-sel inducer) | esBAF Ring1 qPCR inactive | Fgf4 repress inactive | esBAF Bmi1 qPCR inactive | A549 tox SP inactive | HepG2 cytotox SP inactive | HEK293 cytotox SP inactive
CC1CCc2sc(C(=O)NC3CCCCC3)cc2C1 (stereo not drawn)	esBAF inh 75.4 (no result: E-sel inducer) | esBAF Ring1 qPCR inactive | Fgf4 repress inactive | esBAF Bmi1 qPCR inactive | A549 tox SP inactive | HepG2 cytotox SP inactive | HEK293 cytotox SP inactive
CC1CCc2sc(C(=O)NC(C)C3CCCO3)cc2C1 (stereo not drawn)	none (no result: esBAF inh, Statin myotox sup)
O=c1oc2ccccc2c(O)c1CN1CCCCC1	none (no result: E-sel inducer)
O=C(Cc1c(O)c2ccccc2oc1=O)c1ccc(F)cc1	esBAF inh 69.4 (no result: E-sel inducer) | esBAF Ring1 qPCR inactive | Fgf4 repress inactive | esBAF Bmi1 qPCR inactive | A549 tox SP inactive | HepG2 cytotox SP inactive | HEK293 cytotox SP inactive
C[C@H](CO)N1C[C@H](C)[C@@H](CN(C)C(=O)NC2CCCCC2)OCCCC[C@H](C)Oc2ccc(NC(=O)c3ccncc3)cc2C1=O	none (no result: Statin myotox sup)
C[C@@H]1CN([C@H](C)CO)C(=O)c2cc(NC(=O)NC3CCCCC3)ccc2O[C@@H](C)CCCCO[C@@H]1CN(C)Cc1ccc(Cl)c(Cl)c1	none (no result: PGC1a acetyl inh)
O=C(Nc1ccccc1Cl)c1cc(=O)c2ccccc2o1	esBAF inh 73.1 (no result: E-sel inducer) | esBAF Ring1 qPCR inactive | Fgf4 repress inactive | esBAF Bmi1 qPCR inactive | A549 tox SP inactive | HepG2 cytotox SP inactive | HEK293 cytotox SP inactive
O=C(O)c1cc(=O)c2ccccc2o1	none
c1ccc(-c2nnc3oc(-c4cccs4)nn23)cc1	esBAF inh 166.4 (no result: PGC1a acetyl inh) | esBAF Ring1 qPCR inactive | Fgf4 repress inconclusive | esBAF Bmi1 qPCR inactive | A549 tox SP inactive | HepG2 cytotox SP inactive | HEK293 cytotox SP inactive
CO[C@@H](CN(C)C(=O)c1ccc2c(c1)OCO2)[C@H](C)CN([C@H](C)CO)S(=O)(=O)c1ccc(C)cc1	none (no result: UUG fidelity)
CN(C)c1ccc(C=NN2CCCCCC2)cc1	esBAF inh 75.2 | esBAF Ring1 qPCR inactive | Fgf4 repress inactive | esBAF Bmi1 qPCR inactive | A549 tox SP inactive | HepG2 cytotox SP inactive | HEK293 cytotox SP inactive
CN1CCN(/N=C/c2ccc(N(C)c3ccccc3)cc2)CC1	none (no result: PglD inh)
CN(Cc1ccccn1)C(=O)c1ccc2nc(Cc3cccc(Cl)c3)oc2c1	none (no result: esBAF inh, Statin myotox sup)
COC(=O)CN(C)C(=O)c1ccc2nc(Cc3cccc(Cl)c3)oc2c1	esBAF inh 65.8 | esBAF Ring1 qPCR inactive | Fgf4 repress inactive | esBAF Bmi1 qPCR inactive | A549 tox SP inactive | HepG2 cytotox SP inactive | HEK293 cytotox SP inactive
CCC(=O)N1[C@H](C(=O)N2CCCCC2)[C@@H](CO)[C@@H]2Cn3c(cccc3=O)[C@@H]21	none (no result: PGC1a acetyl inh, UUG fidelity)
CN(C)c1ccc(C=C2C=Cc3ccccc32)cc1	none (no result: E-sel inducer)
COc1cc2c(cc1OC)C(=Cc1ccc(N(C)C)cc1)C=C2	esBAF inh 67.1 | esBAF Ring1 qPCR inactive | Fgf4 repress inactive | esBAF Bmi1 qPCR inactive | A549 tox SP inactive | HepG2 cytotox SP inactive | HEK293 cytotox SP inactive
Cc1noc(C)c1S(=O)(=O)Nc1ccc2c(c1)CC(=O)N([C@H](C)CO)C[C@@H](C)[C@H](CN(C)CC1CC1)O2	none
CCC(=O)Nc1cccc(-c2nnc(-c3ccccc3)o2)c1	esBAF inh 74.4 | esBAF Ring1 qPCR inactive | Fgf4 repress inactive | esBAF Bmi1 qPCR inactive | A549 tox SP inactive | HepG2 cytotox SP inactive | HEK293 cytotox SP inactive
CCCCC(=O)Nc1cccc(-c2nnc(-c3ccccc3)o2)c1	none (no result: E-sel inducer)
COc1ccc(-n2nc(C(=O)NCC(=O)N3CCN(c4ccccc4)CC3)c3ccccc3c2=O)c(OC)c1	none (no result: PGC1a acetyl inh) | esBAF Ring1 qPCR inactive | Fgf4 repress inactive | esBAF Bmi1 qPCR inactive | A549 tox SP inactive | HepG2 cytotox SP inactive | HEK293 cytotox SP inactive
COc1ccc(-n2nc(C(=O)NCC(=O)N3CCN(c4ccc(F)cc4)CC3)c3ccccc3c2=O)c(OC)c1	none (no result: PGC1a acetyl inh)
Nc1ccc2c(c1)Cc1cc(N)c(Cl)cc1-2	esBAF inh 88.3 | esBAF Ring1 qPCR inactive | Fgf4 repress inactive | esBAF Bmi1 qPCR inactive | A549 tox SP inactive | HepG2 cytotox SP inactive | HEK293 cytotox SP inactive
COc1ccc(NC(=O)N(C)C[C@H]2Oc3ccc(NS(=O)(=O)c4ccc(OC)cc4)cc3CC(=O)N([C@H](C)CO)C[C@H]2C)cc1	none
COc1ccc(-c2nc(C#N)c(NC(C)C)o2)cc1	esBAF inh 66.5 (no result: E-sel inducer) | esBAF Ring1 qPCR inactive | Fgf4 repress inactive | esBAF Bmi1 qPCR inactive | A549 tox SP inactive | HepG2 cytotox SP inactive | HEK293 cytotox SP inactive
C=CCn1c(-c2ccc(N)cc2)nc2ccccc21	esBAF inh 58.4 (no result: E-sel inducer) | esBAF Ring1 qPCR inactive | Fgf4 repress inactive | esBAF Bmi1 qPCR inactive | A549 tox SP inactive | HepG2 cytotox SP inactive | HEK293 cytotox SP inactive
CCn1c(-c2ccc(N)cc2)nc2ccccc21	none (no result: E-sel inducer)
